Measured affinities in a library of Ab-14 light chain variants

Data: MIT Lincoln Laboratory AlphaSeq set, Engelhart et al. 2022, doi:10.1038/s41597-022-01779-4, as distributed in FLAb.

All variants were tested on one target, the spike HR2 peptide PDVDLGDISGINAS (SARS-CoV-2).

Ab-14 is the parent antibody, in scFv form: VH, then three GGGGS repeats, then VL. The heavy chain is unchanged in all variants.
VH: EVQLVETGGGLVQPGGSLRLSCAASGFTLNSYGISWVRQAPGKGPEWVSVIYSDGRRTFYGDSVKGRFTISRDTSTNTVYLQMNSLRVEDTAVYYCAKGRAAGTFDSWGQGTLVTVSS
VL: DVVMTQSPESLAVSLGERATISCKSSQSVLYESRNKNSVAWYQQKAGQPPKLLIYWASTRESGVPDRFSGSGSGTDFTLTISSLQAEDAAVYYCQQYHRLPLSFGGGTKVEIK

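The starting antibody came from a phage panning campaign against this peptide. The library (AAYL50) carries one to three amino acid substitutions per variant, with no insertions or deletions. AlphaSeq pools MATa yeast showing the antibodies with MATalpha yeast showing the peptide. The frequency of each diploid, read from paired DNA barcodes, reflects how well the two displayed proteins bind. Read counts were normalised to the haploid input and turned into Kd by a linear fit to BCL2-family pairs of known affinity, for each replicate. Mating was done three times.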

The parent's light chain CDRs are KSSQSVLYESRNKNSVA, WASTRES, QQYHRLPLS; each variant's own CDRs replace them letter for letter.
Numbers give log10(Kd / nM), so 0 is 1 nM and 3 is 1 µM. Smaller is tighter.
The mean shown is taken over the replicates in which the pair was detected.
"nd" means that the variant was in the library but no mating with the target was seen in any replicate; the authors take this as a sign of poor binding, and no number exists.
The list is sorted by this average, lowest first, undetected variants last.
As a blank, each scFv also met three strains without target: over library AAYL50, 18% of these pairings were detected, typically at 4.19 and seldom below 2.99.

-0.06 (3 of 3 replicates): KSSQGVLYESRNKNSVA | EASTRES | QFYHRLPLS.
0.23 (3 of 3 replicates): KSSQSMLYESRNKNSVA | RASTRVS | QQYHRLPLS.
0.39 (3 of 3 replicates): KLSQSVLYESRNKHSVA | WASTRES | QQYHRHPLS.
0.42 (3 of 3 replicates): KSSQSVLYTSRNKNSVA | EASTRES | QQYHRLELS.
0.78 (3 of 3 replicates): KQSQSVLYEGHNKNSVA | WASTRES | QQYHRLPLS.
0.85 (3 of 3 replicates): KDSNSVLYESRNDNSVA | WASTRES | QQYHRLPLS.
0.89 (3 of 3 replicates): KSSQSVLYSSRNKNSVA | WASTRES | QQYHHCPLS.
1.02 (3 of 3 replicates): KSSQSVLYESRNKQSVA | WASTRES | QDYHRRPLS.
1.07 (3 of 3 replicates): KSSQSVLNESRNKNDVA | WASTRES | QQSHRLPLS.
1.08 (3 of 3 replicates): KSSKSVLYESRNKNSVA | WASTREY | QQYHRLPLS.
1.19 (3 of 3 replicates): KSKQSQLYESRNINSVA | WASTRES | QQYHRLPLS.
1.52 (3 of 3 replicates): KSSKSVWYESRPKNSVA | WASTRES | QQYHRLPLS.
1.52 (3 of 3 replicates): KSSQSVLYESANKNQVA | WASTRQS | QQYHRLPLS.
1.78 (3 of 3 replicates): KSSGSVMYESRNKNSVA | WASTRES | QTYHRLPLS.
1.96 (3 of 3 replicates): KCSQSVLYESRNKSSVA | WASTRES | QQYHRLPLS.
2.53 (3 of 3 replicates): KSHQSVLYYSRNKNSVA | WASTRES | QQYHRLPLS.
2.57 (3 of 3 replicates): TSSASVLYESRNKESVA | WASTRES | QQYHRLPLS.
3.09 (3 of 3 replicates): KSSQSVLYRSRNKNSVA | WASTRES | QQYHILPLS.
3.24 (1 of 3 replicates): KFSQSVLVESRNKNSVA | WASTRES | QQYHRLKLS.
3.25 (3 of 3 replicates): KSSQSVLYESRNKNSVA | WASTPES | DQYHRLPLS.
3.56 (3 of 3 replicates): KSSQSVLYESKNKLSVA | WASNRES | QQYHRLPLS.
3.69 (1 of 3 replicates): KSSQSVLYESWNWNSVA | WVSTRES | QQYHRLPLS.
3.83 (3 of 3 replicates): KSSQSVLYMSRNGNSVA | WASTRDS | QQYHRLPLS.
4.07 (2 of 3 replicates): KASQSVLYESRNKNSVA | WPSTRES | QQYHRLVLS.
4.07 (1 of 3 replicates): KSSQSNLYNSRNKNSVA | WASTRES | QQYHRLTLS.
4.21 (1 of 3 replicates): KSSQSVLYESRNKNSTA | WASTYES | QQIHRLPLS.
4.54 (2 of 3 replicates): KSSQSVAYEFRNKNSVA | WASTRES | QGYHRLPLS.
4.57 (3 of 3 replicates): KSSQSVLYESRNKNSVA | WNSTRES | QQYHRLPSS.
4.74 (1 of 3 replicates): KSSQSVLYESRNKNSVA | WASTMES | QQWFRLPLS.
4.82 (1 of 3 replicates): KSSQSVLYCSRNKNSVW | WASTRES | QQCHRLPLS.
4.99 (1 of 3 replicates): KSSQSVVYESRNKNSVA | WASTRES | QQYHRLHLW.
5.03 (1 of 3 replicates): KSSCSVLYMSRNKNSVA | WASNRES | QQYHRLPLS.
5.05 (2 of 3 replicates): KWSQSVLYESRNKNSDA | WASTREP | QQYHRLPLS.
nd (0 of 3 replicates): KSSQSVHYESRNKNSVA | WASTRES | QQYHRGPLS.
nd (0 of 3 replicates): KSWQSVLYESRNKNSVA | WASTRTS | QQYHRLPPS.
nd (0 of 3 replicates): KSSQSVYYESRNKNSVA | WASTRES | QKYHRLPFS.
nd (0 of 3 replicates): KSSQSVLYESRNKNSVF | VASTRES | QQYHHLPLS.
nd (0 of 3 replicates): KSSQSVLYESRNDNSNA | WASTRES | QQYHPLPLS.
nd (0 of 3 replicates): KSSQSVLHESRNKNSVW | WAPTRES | QQYHRLPLS.
nd (0 of 3 replicates): KSSQSVLYESRHKNSVA | WASTREI | QQYHRLSLS.
nd (0 of 3 replicates): KSSQRVVYESRNKNSVA | WASTRES | QQYHRLRLS.
nd (0 of 3 replicates): KSSQSVLYEFRNKNSVA | WNSTRES | QQYHRRPLS.
nd (0 of 3 replicates): KSPQSVLYESRNKNSVA | WASTRES | QQYHRLSLS.

The 3 strongest on average among those seen in every replicate, once more:

| CDR-L1 | CDR-L2 | CDR-L3 | mean log10 Kd (nM) | replicates with signal |
|---|---|---|---|---|
| KSSQGVLYESRNKNSVA | EASTRES | QFYHRLPLS | -0.06 | 3 of 3 |
| KSSQSMLYESRNKNSVA | RASTRVS | QQYHRLPLS | 0.23 | 3 of 3 |
| KLSQSVLYESRNKHSVA | WASTRES | QQYHRHPLS | 0.39 | 3 of 3 |

For reference, the parent read 0.65 as the reference entry and 1.68 as a member of this library.